US20230381129A1, “PERMETRIN FOR USE IN THE TREATMENT OF DEMODEX SPP INFESTATION” (priority 2020, published 2023)

System: Demodex mites
Assay: In vitro survival study of Demodex mites on a glass slide without a coverslip
Design: species or system Demodex spp.
Description: At least ten eyelashes from the upper and lower eyelids of both eyes were randomly collected from all subjects from the subsequent groups. The collected material was assessed in a UB-203i light microscope with a five-point revolver bowl and a vision track with a magnification of 4×, 10×, 20×, 40× and 100×, archiving the results with a digital camera type Toupcam TP 601300A from Touptek Photonics installed in the device.
In the case of the presence of Demodex mites, several dozen different chemical compounds in various concentrations with a potential demodicidal effect were used on the glass slide without the use of a coverslip. […] The in vitro test results for permethrin and fluralaner were archived using a Toupcam TP 601300A digital camera from Touptek Photonics mounted on the device.

## CCN(Cc1ccncc1)C(=O)C(CO)c1ccccc1 (stereo not shown) [Tropicamidum]
  Time of Survival of Demodex mites: more than 15 minutes
